Data: publication PMC6586500 (SLAS discovery : advancing life sciences R & D, 2019)

Molecular target: T1, CBX4 (Homo sapiens, UniProt O00257)
T1 sequence (O00257 8-65): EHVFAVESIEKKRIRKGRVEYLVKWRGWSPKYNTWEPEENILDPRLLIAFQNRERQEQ
Experiment: TR-FRET competition assay, CBX4 chromodomain with UNC4195 tracer
Assay type: binding

IC50: 60 nM
Structure (SMILES): CCN(CC)CCCC[C@H](NC(=O)[C@H](CC(C)C)NC(=O)[C@H](C)NC(=O)[C@H](Cc1ccccc1)NC(=O)c1ccc(C(C)(C)C)cc1)C(=O)N[C@@H](CO)C(=O)OC [UNC3866]
